Bioassay records from PubChem BioAssay.
uPA surface inh – cell surface uPA generation inhibition; AID 540303; cell surface uPA generation assay, qHTS; actives 0.31% (n = 330,000); Potency, µM (titrated, usually from 38.3 µM), without a hit: at the highest dose activity change, negative = inhibition, usual class: inhibitors; active = well fitted inhibition curve with a large enough effect; inconclusive = small, poorly fitted or top-dose-only effect; inactive = no such curve, though single readings can be large or run the other way; tested in mouse RAW 264.7 cells; also: potency is read from the fitted curve at half-maximal effect; % is scaled to controls: 0 for no effect and ±100 for the full control effect; nearly all actives have a fitted effect of over 55% in size
miR-21 reporter – raises the signal of a miR-21 reporter; HeLa miR-21 FLuc reporter, luciferase, 48 h; Potency, µM (top dose mostly 38.3 µM), for inactives: at the highest dose reporter change, positive = more light; AID 2288; 340,000 tested, under 10 active; active = well fitted rising curve with a large enough effect; inconclusive = small, poorly fitted or top-dose-only effect; inactive = no such curve, though single readings can be large or run the other way;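 note: % of control where 0% means no effect; miR-21 action dims this reporter so a rising signal means less miR-21 action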
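HeLa miR-21-FLuc reporter line, endogenous miR-21; 2000 cells/well in DMEM/10% FBS; compound titration up to ~40uM final, 48 h, 37 degree Celsius; luciferase detection reagent, 15 min lysis, CCD luminescence.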
DT40 TDP1 CPT – DT40-hTDP1 cell growth loss with CPT; chicken DT40 Tdp1-/-;hTDP1 cells + 20 nM CPT, ATP luminescence, 48 h; Potency, µM (series often up to 46.2 µM), without a hit: at the top dose activity change, negative = growth inhibition, usual class: inhibitors; actives 12% (n = 420,000); AID 686979; also: potency is read from the fitted curve at half-maximal effect; % is scaled to controls: 0 for no effect and ±100 for the full control effect; nearly all actives have a fitted effect of over 55% in size
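Cell growth measured by CellTiter-Glo luminescence after a minimum 48 h, 37 C compound exposure with 20 nM CPT in Tdp1-knockout DT40 cells stably expressing hTDP1, seeded 400/well; qHTS titration format.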
DT40 TDP1 no CPT – qHTS for Inhibitors of human tyrosyl-DNA phosphodiesterase 1 (TDP1): qHTS in cells in absence of CPT. AID 686978, 2013. DT40 Tdp1-/- hTDP1 cells, no CPT, ATP luminescence, 48 h. actives 15% (n = 420,000). Potency, µM (top dose mostly 46.2 µM), for inactives: at the highest dose activity change, negative = growth inhibition, most hits filed as inhibitors; also: potency is read from the fitted curve at half-maximal effect; % is scaled to controls: 0 for no effect and ±100 for the full control effect; nearly all actives have a fitted effect of over 55% in size
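Cells were dispensed at 400 per well, compounds added by pin tool, plates incubated ≥48 hr at 37 °C, then CellTiter-Glo added for 30 min at room temperature before luminescence reading. Line: DT40 Tdp1-/- complemented with hTDP1; camptothecin omitted.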
TDP1 inh – blocks human tyrosyl-DNA phosphodiesterase 1; Q9NUW8; Potency, µM (top dose mostly 130 µM), for inactives: at the top dose activity change, negative = inhibition, most hits filed as inhibitors; actives 0.28% (n = 350,000); recombinant TDP1, AlphaScreen DNA substrate cleavage; also: potency is read from the fitted curve at half-maximal effect; % is scaled to controls: 0 for no effect and ±100 for the full control effect; nearly all actives have a fitted effect of over 40% in size
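Compounds were preincubated with Tdp1 (1 nM final) for 15 min at room temperature before substrate (15 nM final) started a 5 min reaction; beads (10 ug/ml final) were then added for 10 min before AlphaScreen detection.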
Active calls of the source: *; ? = inconclusive; / = no result given. Hits are enriched below; roughly 16% of the tested compounds scored in any of these assays. Unless noted, calls follow the shape of the dose curve; as a rule, active = well fitted curve in the direction sought with a large enough effect; inconclusive = small, poorly fitted or top-dose-only effect, or another doubt; inactive = no such curve, though single readings can be large; an effect the other way counts as inactive or inconclusive.

1) Cc1ccc(-c2cn3c(n2)sc2cc(C(=O)N4CCCCC4)ccc23)cc1
2) CCOC(=O)C1CCN(C(=O)c2ccc3c(c2)sc2nc(-c4ccc(OCC)cc4)cn23)CC1
3) CCN1/C(=C/C=C2/SC(=Nc3cccc4ncccc34)N(C)C2=O)Sc2ccccc21
4) O=C(NCCN1CCN(c2ccccc2F)CC1)C1COc2ccccc2C1 (stereo not drawn)
5) CCCCNc1ncnc2oc(-c3ccco3)c(-c3ccco3)c12
6) CN(C)CCNc1ncnc2oc(-c3ccccc3)c(-c3ccccc3)c12
7) COc1ccc(-c2oc3ncnc(NCCCN(C)C)c3c2-c2ccc(OC)cc2)cc1
8) CCCCNc1ncnc2[nH]ncc12

assay / compound | 1 | 2 | 3 | 4 | 5 | 6 | 7 | 8
uPA surface inh | / | / | 3% | / | / | -15% | ? | 14%
miR-21 reporter | 2% | -1% | / | 2% | / | -16% | -10% | /
DT40 TDP1 CPT | -79% | 7.3µM* | 3% | -17% | 6.3µM* | ? | ? | ?
DT40 TDP1 no CPT | 16µM* | 6.5µM* | -16% | ? | 6.3µM* | ? | 18µM* | -22%
TDP1 inh | -1% | 1% | / | ? | 9% | / | / | /

Rewritten with each value named: part of the list above.
6. CN(C)CCNc1ncnc2oc(-c3ccccc3)c(-c3ccccc3)c12
  uPA surface inh: -15% | miR-21 reporter: -16% | DT40 TDP1 CPT: ? | DT40 TDP1 no CPT: ? | TDP1 inh: /

1. Cc1ccc(-c2cn3c(n2)sc2cc(C(=O)N4CCCCC4)ccc23)cc1
  uPA surface inh: / | miR-21 reporter: 2% | DT40 TDP1 CPT: -79% | DT40 TDP1 no CPT: 16µM* | TDP1 inh: -1%

Next part
9) CCn1c(CNc2nc3ccccc3n2C(C)C)nc2ccccc21
10) COc1cccc(CNc2nc3ccccc3n2C(C)C)c1O
11) CC(C)n1c(NCc2cc(Cl)ccc2O)nc2ccccc21
12) OC[C@@H]1CN(CCc2ccccc2)C[C@H](n2cnc3c(N4CCOCC4)ncnc32)O1
13) Cc1cccc(C)c1OCC(=O)N1CC2(C)CC1CC(C)(C)C2 (stereo not drawn)
14) Cc1noc(C)c1COc1ccc(C(=O)OCC(=O)N2CC3(C)CC2CC(C)(C)C3)cc1 (stereo not drawn)
15) CN(C)S(=O)(=O)c1ccc(C(=O)OCC(=O)N2CC3(C)CC2CC(C)(C)C3)cc1 (stereo not drawn)
16) Cc1ccc(OCC(=O)N2CC3(C)CC2CC(C)(C)C3)cc1 (stereo not drawn)

assay / compound | 9 | 10 | 11 | 12 | 13 | 14 | 15 | 16
uPA surface inh | 9% | -1% | 1% | / | 9% | -9% | -15% | 10%
miR-21 reporter | -11% | -9% | 13% | / | 1% | 3% | / | 0%
DT40 TDP1 CPT | 15µM* | 21µM* | ? | -6% | ? | ? | ? | ?
DT40 TDP1 no CPT | 10µM* | ? | 18µM* | ? | 14µM* | 18µM* | -9% | ?
TDP1 inh | 3% | / | 2% | / | 3% | 7% | 0% | 5%

17) COc1ccc(CN(CC(=O)NCc2ccccc2)C(=O)CCC(=O)Nc2cc(C)ccn2)cc1
18) CCO[C@@H]1OC(C(N)=O)=C[C@H](C2CC2)[C@H]1CCCO
19) Cc1cc2c(cc1S(=O)(=O)CCC(=O)N1CC(C)CC(C)C1)OCC(=O)N2 (stereo not drawn)
20) CCOc1ccc(C)cc1S(=O)(=O)n1nc(C)cc1C
21) CCOc1ccc(C(C)(C)C)cc1S(=O)(=O)n1nc(C)cc1C
22) CCOc1ccc(S(=O)(=O)n2nc(C)cc2C)c2ccccc12
23) CCOC(=O)c1ccc(S(=O)(=O)NNC(=O)Cc2csc(C)n2)cc1
24) Nc1c(C(=O)OCC2CCCO2)c2nc3ccccc3nc2n1C1CCCC1 (stereo not drawn)

assay / compound | 17 | 18 | 19 | 20 | 21 | 22 | 23 | 24
uPA surface inh | -1% | -6% | -3% | -1% | 1% | -3% | -6% | 2%
miR-21 reporter | -1% | / | 0% | -7% | -10% | -16% | / | -1%
DT40 TDP1 CPT | -13% | -3% | -1% | 0% | ? | 23µM* | -3% | ?
DT40 TDP1 no CPT | ? | 7% | -19% | 0% | 11µM* | ? | -4% | 12µM*
TDP1 inh | / | / | / | 5% | -2% | 1% | -13% | 3%

25) COCCn1c(N)c(C(=O)NCC2CCCO2)c2nc3ccccc3nc21 (stereo not drawn)
26) Nc1c(C(=O)NCC2CCCO2)c2nc3ccccc3nc2n1/N=C/c1ccncc1 (stereo not drawn)
27) CC(C)Cn1c(N)c(C(=O)NCC2CCCO2)c2nc3ccccc3nc21 (stereo not drawn)
28) Nc1c(C(=O)NC2CCCC2)c2nc3ccccc3nc2n1N
29) COC(=O)c1cc2c(C)nn(C)c2s1

assay / compound | 25 | 26 | 27 | 28 | 29
uPA surface inh | 7% | 1% | 0% | -6% | 2%
miR-21 reporter | 7% | / | 23% | -23% | -2%
DT40 TDP1 CPT | ? | 8.2µM* | ? | ? | 18%
DT40 TDP1 no CPT | ? | 1.6µM* | 26µM* | 23µM* | 0%
TDP1 inh | 2% | / | -11% | 1% | 0%
